Structures can show the parent of a compound that is named as a salt.
Target: electric eel acetylcholinesterase (Electrophorus electricus, UniProt O42275)
Assay: biochemical

The chains behind the UniProt entries cited, without tags or fusion partners. Where a name states a change or a piece, a line headed by the entry shows the natural chain unless it says otherwise.
UniProt O42275: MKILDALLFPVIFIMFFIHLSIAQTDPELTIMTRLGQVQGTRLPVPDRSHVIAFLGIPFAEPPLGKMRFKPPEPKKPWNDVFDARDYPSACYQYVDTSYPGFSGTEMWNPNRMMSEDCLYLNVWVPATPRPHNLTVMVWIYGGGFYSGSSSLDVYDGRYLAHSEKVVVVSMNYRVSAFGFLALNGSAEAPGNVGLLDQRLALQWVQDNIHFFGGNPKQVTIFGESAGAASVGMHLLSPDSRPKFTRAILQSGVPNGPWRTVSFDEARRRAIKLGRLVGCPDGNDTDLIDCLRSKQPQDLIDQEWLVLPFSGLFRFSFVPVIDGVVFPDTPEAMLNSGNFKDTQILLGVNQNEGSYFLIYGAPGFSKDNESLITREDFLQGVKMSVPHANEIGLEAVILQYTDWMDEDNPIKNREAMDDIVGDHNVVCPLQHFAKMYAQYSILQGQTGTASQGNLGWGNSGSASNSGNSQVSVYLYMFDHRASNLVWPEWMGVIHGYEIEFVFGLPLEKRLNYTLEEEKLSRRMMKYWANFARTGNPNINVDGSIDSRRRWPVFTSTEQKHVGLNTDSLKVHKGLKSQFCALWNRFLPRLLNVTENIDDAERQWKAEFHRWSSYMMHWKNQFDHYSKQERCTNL

CNC(=O)Oc1ccc2c(c1)[C@@]1(C)CCN(C)[C@H]1N2C [PL#16, (−)-Physostigmine sulfate, reference compound]
IC50: 580 nM

From patent US20040127518A1, “Modulation of anxiety through blockade of anandamide hydrolysis” (priority 2002, published 2004)
